pEC50: −log10 of the molar value.
Target: RORγ-LBD (Homo sapiens (Human), UniProt P51449)
Assay: RORγ-Ligand Binding Domain (LBD) TR-FRET Assay Protocol II
Conditions: read-out: Protocol II Fret EC50; purified RORγ-LBD, SRC1 peptide, overnight at 4° C.
Protocol: Part II—Procedures for RORγ-Ligand Binding Domain TR-FRET Assay Protocol II
HIS-tagged RORγ-LBD protein was expressed in SF9 cells using a baculovirus expression system. The RORγ-LBD protein was purified by […]. Separately, SF9 cells not expressing recombinant protein were lysed in TBS buffer (25 mM Tris, pH 8.0, 150 mM NaCl) under sonication. The lysate was added to the purified RORγ-LBD in a volume equivalent of 0.75 μL lysate (from 30,000 SF9 cells) per 75 femtomol of RORγ-LBD protein. The resulting mixture was diluted in assay buffer (50 mM Tris pH 7.0, 50 mM KCl, 1 mM EDTA, 0.1 mM DTT, 0.01% BSA) to obtain RORγ-LBD protein at a final concentration of 3 nM.
Compounds to be tested were injected to the assay plate using Acoustic Droplet Ejection technology by Echo 550 liquid handler (Labcyte, Calif.). […]
The final assay mixture was incubated overnight at 4° C., and the fluorescence signal was measured on an Envision plate reader: (Excitation filter=340 nm; APC emission=665 nm; Europium emission=615 nm; dichroic mirror=D400/D630; delay time=100 μs, integration time=200 μs). The EC50 value for test compounds was calculated from the quotient of the fluorescence signal at 665 nm divided by the fluorescence signal at 615 nm

The chains behind the UniProt entries cited, without tags or fusion partners. Residues count along the entry.
UniProt P51449, 269-508 limits assumed: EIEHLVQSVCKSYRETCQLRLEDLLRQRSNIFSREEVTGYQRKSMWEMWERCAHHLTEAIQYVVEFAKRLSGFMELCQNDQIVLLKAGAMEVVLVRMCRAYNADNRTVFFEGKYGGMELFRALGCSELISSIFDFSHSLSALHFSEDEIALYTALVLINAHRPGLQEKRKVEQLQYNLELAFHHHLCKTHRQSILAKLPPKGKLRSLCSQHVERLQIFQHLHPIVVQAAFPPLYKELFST

## CC(C)OC(=O)N[C@@H]1Cc2ncc(NC(=O)c3c(Cl)cccc3Cl)cc2N(S(=O)(=O)c2cccc(C(F)(F)F)c2)C1 [Compound 58]
  pEC50: 6.90

## CC(C)OC(=O)N[C@H]1Cc2ncc(NC(=O)c3c(Cl)cccc3Cl)cc2N(S(=O)(=O)c2cccc(C(F)(F)F)c2)C1 [Compound 47]
  pEC50: 6.43
